Screening results from PubChem BioAssay.
C2C12 statin = suppression of simvastatin myotoxicity | C2C12 myotubes + simvastatin, ATP luminescence, 48 h; scaled: DMSO 0, geranylgeraniol control 100 | rescue of ATP level, % at 7.49 µM | actives 0.78% (n = 330,000) | AID 602340;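 active = mean ATP rescue above about 67%, or every replicate alone reaching that limit, limit read from the data, passing the limit was not always enough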;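 note: myotubes were challenged with 10 µM simvastatin during compound exposure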
Yeast UUG start-1 = modulators of yeast start codon fidelity, primary screen, whole organism, S. cerevisiae, single point, plate reader | AID 602363, 2012 | S. cerevisiae UUG-firefly luciferase reporter, luminescence/redox ratio | activity score, % at 18.7 µM | hit rate 0.13% among 350,000;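 active = replicate mean at a twofold rise or more, about +100% in these data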;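 also: firefly luciferase made from a UUG start codon reports start codon fidelity; reporter light over untreated wells divided by growth signal over untreated wells; some hits fall short of that in this replicate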
hiPSC survival = enhancers of human iPSC single-cell survival. hiPSC single-cell survival, ATPlite luminescence; 100% = ROCK inhibitor wells, 0% = DMSO. survival enhancement, % at 20 µM. actives 0.044% (n = 360,000); in the data active = survival enhancement above about 18%;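 note: cells exposed to compounds for 16 hours before the ATP read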
PGC1a acetyl inh = modulators of PGC1a acetylation. U2OS PGC1a acetylation, AlphaScreen anti-acetyl-lysine; with virally co-expressed GCN5 acetyltransferase. inhibition, % at 15.6 µM. actives 0.17% (n = 350,000);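 active = every replicate shows inhibition of at least 40%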;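 note: 0% = neutral control wells and 100% = positive control wells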
FN deposit inh = fibronectin deposition inhibition. actives 0.086% (n = 350,000). inhibition, % at 12.6 µM. AH1F fibroblasts, Alexa488-fibronectin deposition fluorescence, overnight;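 active = mean inhibition across replicates of 30% or more, regardless of how many single replicates reach that level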;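 note: positive control wells lacked labelled fibronectin entirely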
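Material: AH1F fibroblast monolayer depositing Alexa488-labelled fibronectin into matrix / Amount: 10000 AH1F cells per well / Signal: fluorescence 485/525 nm / Medium: DMEM, 2% serum / Compound: single dose, pinned / Incubation: 1 h cell adhesion before compound, then overnight fibronectin incubation / Reagent: Alexa488-FN, 24 nM final / Read-out: inhibition of fibronectin deposition signal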
Yeast UUG start-2 = yeast start codon fidelity modulation | shares compounds with Yeast UUG start-1 | S. cerevisiae UUG-start firefly luciferase, luminescence, 4 h; 100% means double the DMSO signal | 540 tested, under 10 active | activation, % at 38 µM;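 active = signal increase whose fitted curve reaches an absolute level of 40 at a concentration under 10 µM; inactive = activity opposite to the expected increase, or the rest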
COX5a expr inh = inhibitors of PGC-1a target COX5a expression in C2C12 myotubes | C2C12 myotubes PGC-1a adenovirus, COX5a qPCR | 45 tested, under 10 active | maximal activity, % | shares compounds with PGC1a acetyl inh;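 active = fitted dose curve reaching 40% activity at or below the highest valid dose tested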
AID743468 = change in PGC-1a target gene PDK4 expression, dose response, C2C12 myotubes, RT-qPCR, cherry-pick; shares compounds with PGC1a acetyl inh; PGC-1a adenovirus, PDK4 mRNA qPCR; PDK4 expression increase, % at 19.5 µM; 45 tested, under 10 active;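 active = fitted curve reaching a 40% PDK4 expression rise at or below the top valid tested dose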
An asterisk follows results filed as active; i = inactive; . = no result; [ ] = dose if it differs, or a comment. Sampled rows, rich in hits. Any-hit rate of the full collection: about 0.91%.

SMILES	C2C12 statin	Yeast UUG start-1	hiPSC survival	PGC1a acetyl inh	FN deposit inh	Yeast UUG start-2	others
Cc1ccc(-n2c(C)nn(CC#N)c2=O)cc1	4	346*	0	17	-6	-1
Cc1nn(CC#N)c(=O)n1-c1ccccc1F	-2	-19	0	9	9	.
CO[C@H]1CN(C)C(=O)c2ccc(NC(C)=O)cc2OC[C@H](C)N(Cc2nccs2)C[C@H]1C	11	27	.	-17	15	.
COc1ccc(CC(=O)Nc2ccc(S(=O)(=O)N3CCCC3)cc2)cc1OC	-1	-9	-2	0	0	.
O=C(COC(=O)Cc1ccc2c(c1)OCCO2)Nc1ccc(S(=O)(=O)N2CCCC2)cc1	0	-5	4	11	.	0
O=C(COC(=O)/C=C/c1ccc2c(c1)OCO2)Nc1ccc(S(=O)(=O)N2CCCC2)cc1	.	.	-2	.	1	.
COc1cc(CC(=O)OCC(=O)Nc2ccc(S(=O)(=O)N3CCCC3)cc2)cc(OC)c1OC	6	652*	-3	10	.	3
C[C@H]1CN([C@@H](C)CO)C(=O)c2cc(-c3ccccc3F)cnc2O[C@H]1CN(C)Cc1ccccc1	-41	11	.	5	15	.
O=C(c1ccc(Cn2c(=O)[nH]c3ccccc3c2=O)cc1)N1CCN(c2ccccc2)CC1	15	480*	0	1	0	15
C[C@H](CO)N1C[C@H](C)[C@H](CN(C)C)Oc2ccc(NC(=O)Nc3ccc4c(c3)OCO4)cc2C1=O	4	-3	.	2	1	.
CC(C)(C)C(=O)COC(=O)c1ccc(O)cc1	-11	387*	1	.	-2	20
Cc1c(C(=O)OCC(=O)c2ccc3c(c2)OCCO3)oc2ccccc12	-14	-5	2	4	0	3
C/C=C/c1ccc2c(c1)O[C@@H](CN(C)CCC)[C@@H](C)CN([C@H](C)CO)S2(=O)=O	0	85*	.	2	-4	i
CCCN(C)C[C@@H]1Oc2cc(C3=CCCCC3)ccc2S(=O)(=O)N([C@@H](C)CO)C[C@H]1C	-89	.	.	-22	.	.
CCCN(C)C[C@@H]1Oc2cc(C3=CCCCC3)ccc2S(=O)(=O)N([C@@H](C)CO)C[C@@H]1C	-61	156*	.	-13	.	i
C/C=C/c1ccc2c(c1)O[C@H](CN(C)Cc1ccc(C(=O)O)cc1)[C@H](C)CN([C@H](C)CO)S2(=O)=O	-6	192*	.	0	.	i
CCCN(C)C[C@H]1Oc2cc(/C=C/c3ccccc3)ccc2S(=O)(=O)N([C@H](C)CO)C[C@@H]1C	0	10	.	3	-20	.
C/C=C/c1ccc2c(c1)O[C@H](CN(C)C(=O)C1CCCCC1)[C@H](C)CN([C@H](C)CO)S2(=O)=O	7	201*	.	-5	.	i
C/C=C/c1ccc2c(c1)O[C@H](CN(C)Cc1ccc(C(=O)O)cc1)[C@@H](C)CN([C@H](C)CO)S2(=O)=O	-5	7	.	-7	.	.
C/C=C/c1ccc2c(c1)O[C@H](CN(C)C(=O)C1CCC1)[C@H](C)CN([C@H](C)CO)S2(=O)=O	-13	.	.	1	.	.

5 consecutive compounds out of the list so far, for reference:
SMILES	C2C12 statin	Yeast UUG start-1	hiPSC survival	PGC1a acetyl inh	FN deposit inh	Yeast UUG start-2	others
Cc1ccc(-n2c(C)nn(CC#N)c2=O)cc1	4	346*	0	17	-6	-1
Cc1nn(CC#N)c(=O)n1-c1ccccc1F	-2	-19	0	9	9	.
CO[C@H]1CN(C)C(=O)c2ccc(NC(C)=O)cc2OC[C@H](C)N(Cc2nccs2)C[C@H]1C	11	27	.	-17	15	.
COc1ccc(CC(=O)Nc2ccc(S(=O)(=O)N3CCCC3)cc2)cc1OC	-1	-9	-2	0	0	.
O=C(COC(=O)Cc1ccc2c(c1)OCCO2)Nc1ccc(S(=O)(=O)N2CCCC2)cc1	0	-5	4	11	.	0

The list goes on.
SMILES	C2C12 statin	Yeast UUG start-1	hiPSC survival	PGC1a acetyl inh	FN deposit inh	Yeast UUG start-2	others
C[C@H](CO)N1C[C@H](C)[C@@H](CN(C)C(=O)C2CCCCC2)Oc2cc(Br)ccc2S1(=O)=O	12	2	.	-4	-20	.
Cn1c(=O)[nH]c(=O)c2c1nc(SCCN1CCOCC1)n2CCCc1ccccc1	-9	-9	0	-1	15	.
CCCCCn1c(SCCN2CCOCC2)nc2c1c(=O)[nH]c(=O)n2C	-9	361*	3	.	15	-8
C[C@H]1CN([C@@H](C)CO)C(=O)c2cc(-c3ccc(C#N)cc3)cnc2O[C@@H]1CN(C)C(=O)c1cccnc1	6	-4	.	-2	5	.
CCCNC(=O)N1CC2(CN(CC3CCOCC3)C2)c2c([nH]c3cc(OC)ccc23)[C@@H]1CO	.	.	.	2	.	.
CN(C)C(=O)C[C@H]1C[C@@H]2c3cc(NC(=O)Nc4ccccc4F)ccc3O[C@@H]2[C@@H](CO)O1	-9	-1	.	2	1	.
CN(C)C(=O)C[C@H]1C[C@H]2c3cc(NC(=O)Nc4ccccc4F)ccc3O[C@H]2[C@H](CO)O1	4	-1	.	6	-9	.
CN(C)C(=O)C[C@@H]1C[C@H]2c3cc(NC(=O)Nc4ccccc4F)ccc3O[C@H]2[C@H](CO)O1	7	47*	.	5	-18	i
CN(C)C(=O)C[C@@H]1C[C@@H]2c3cc(NC(=O)Nc4ccccc4F)ccc3O[C@@H]2[C@@H](CO)O1	0	127*	.	-3	-14	i
CN(C)CC(=O)Nc1ccc2c(c1)[C@@H]1C[C@@H](CC(=O)NCc3cccc(F)c3)O[C@H](CO)[C@@H]1O2	10	5	.	2	.	.
CN(C)CC(=O)Nc1ccc2c(c1)[C@@H]1C[C@@H](CC(=O)NCc3cccc(F)c3)O[C@@H](CO)[C@@H]1O2	0	55*	.	-8	.	i
COc1ccc(S(=O)(=O)N2CCN(CCCOc3ccc(F)cc3)CC2)cc1OC	0	303*	-1	.	-10	7
COc1ccc(S(=O)(=O)N2CCN(c3ccc(F)cc3)CC2)cc1OC	8	4	1	.	0	.
Cc1c(Cl)cccc1N1C(=O)CC(NNC(=O)c2cccs2)C1=O (stereo unspecified)	0	647*	0	-3	-10	-8
Cc1c(Cl)cccc1N1C(=O)CC(NNC(=O)c2cccnc2)C1=O (stereo unspecified)	.	-35	7	24	-3	.
COc1ccccc1NC(=O)N1CCCCN2[C@H](CO)[C@H](c3ccc(-c4cccc(C#N)c4)cc3)[C@H]2C1	-50	4	.	-2	9	.
C[C@H](CO)N1C[C@H](C)[C@@H](CN(C)Cc2ccc(-c3ccccc3)cc2)Oc2c(NC(=O)NC3CCCCC3)cccc2C1=O	-28	-8	.	-11	-17	.
O=C(COC(=O)Cc1ccc(Cl)cc1)Nc1ccccc1F	.	.	3	-6	2	.
O=C(COC(=O)Cc1ccc(Cl)cc1)Nc1c(F)cccc1F	-5	460*	-1	-3	-2	-5
Cc1noc(C)c1NC(=O)N(C)C[C@@H]1OCCCC[C@H](C)Oc2ccc(NC(=O)Nc3ccccc3)cc2C(=O)N([C@H](C)CO)C[C@@H]1C	.	-11	.	-4	.	.
CCOC(=O)c1c2c(n(C)c1C)C(=O)C(=O)c1ccc(Br)cc1-2	-295	-31	-3	-83	8	.	COX5a expr inh=-37;AID743468=-31[6.8 µM]
